In PubChem BioAssay AID1259397 (Fisher Drug Discovery Resource Center, 2018):
“And” between values parts separate entries of the source, which are not always exact repeats. Identical values can stand only once. Only a part is listed here, and it is no random draw. The source made the active and inactive calls.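 The calls were made as follows: active = inhibition of cGAS enzyme activity at or above 60%; inactive = the rest.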

Chains of the proteins cited; added tags and fusions are not shown.
UniProt Q8C6L5, whole entry: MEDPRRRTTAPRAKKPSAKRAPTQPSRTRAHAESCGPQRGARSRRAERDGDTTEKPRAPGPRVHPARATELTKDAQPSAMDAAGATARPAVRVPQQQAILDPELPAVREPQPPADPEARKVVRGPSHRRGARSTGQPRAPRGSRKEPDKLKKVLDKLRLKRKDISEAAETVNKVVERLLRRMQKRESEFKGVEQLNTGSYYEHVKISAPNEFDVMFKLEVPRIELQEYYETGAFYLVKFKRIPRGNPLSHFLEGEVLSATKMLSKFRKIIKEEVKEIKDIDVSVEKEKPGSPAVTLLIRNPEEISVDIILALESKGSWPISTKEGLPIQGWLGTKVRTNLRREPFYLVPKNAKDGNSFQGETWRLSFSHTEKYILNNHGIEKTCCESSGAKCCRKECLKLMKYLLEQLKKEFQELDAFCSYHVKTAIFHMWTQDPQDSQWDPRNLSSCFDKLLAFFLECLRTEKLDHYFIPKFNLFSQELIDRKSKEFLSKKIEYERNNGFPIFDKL

What follows are compounds tested against Cyclic GMP-AMP synthase (Mus musculus) (UniProt Q8C6L5) (assay: inhibitors of Mus musculus cyclic GMP-AMP synthase, initial high-throughput assay, cell-free, RapidFire MS (AID 1259397;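 also: enzyme stimulated by 45 bp dsDNA with ATP and GTP substrates; cGAMP share of summed cGAMP plus half ATP and half GTP signals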)). Conditions: recombinant mouse cGAS, cGAMP by RapidFire MS; at 12.5 µM; stronger effect = higher value.
Cc1ccc(N(C(=O)c2ccco2)C2CCNCC2)cc1F was tested, and the inhibition was inactive: 0.341%. COc1ccc(N(C(=O)CC(C)C)C2CCNCC2)cc1 was tested, and the inhibition was inactive: -5.34%. For CCc1ccc(N(C(=O)c2cccc(C)c2)C2CCNCC2)cc1, the inhibition was inactive: -5.95%. In the case of O=C(NCC1(N2CCOCC2)CCCCC1)c1ccc(OCC(F)(F)F)nc1, the inhibition is reported as inactive: -3.7%. For O=c1[nH]c2ccccc2n1C1CCN(Cc2cccc(F)c2F)CC1, the inhibition was inactive: 1.94%. In the case of O=C(NCC1(N2CCCCC2)CCCCC1)c1ccc2c(c1)OCO2, the inhibition is reported as inactive: -6.99%. In the case of O=C(NCC1(N2CCOCC2)CCCCC1)c1ccc2c3c(cccc13)CC2, the inhibition is reported as inactive: -1.92%. For O=C(NCC1(N2CCCCC2)CCCCC1)c1cc2c(s1)CCC2, the inhibition was inactive: 3.22%. COCC(=O)N(c1cccc(C)c1)C1CCNCC1 was tested, and the inhibition was inactive: -4.97%. In the case of COc1cc(NC2CCNCC2)cc(OC)c1, the inhibition is reported as inactive: 7.69%. In the case of CCOC(OCC)P(=S)(OCC)OCC, the inhibition is reported as inactive: -12.6%. With Cc1cc(=O)[nH]c(C(C)N2CCC(Nc3ccccc3)CC2)n1 (centres undefined) the inhibition was inactive: -7.14% and inactive: -13.3%. With Cc1nc([N+](=O)[O-])cn1CCC(=O)N[C@@H]1CCCC[C@H]1N1CCOCC1 the inhibition was inactive: -13.4%. O=C(NCC1(N2CCCCC2)CCCCC1)c1cccs1 was tested, and the inhibition was inactive: 2.69%. c1ccc(NC2CCN(CCc3ccncc3)CC2)cc1 was tested, and the inhibition was inactive: 0.704%. With COc1cccc(N(C(=O)c2cccc(Cl)c2)C2CCNCC2)c1 the inhibition was inactive: 0.211%. CC(C)(C)OC(=O)N1CCC(Nc2ccccc2)(C(=O)N2CCC2)CC1 was tested, and the inhibition was inactive: -0.863%. For O=C(NCC1(N2CCOCC2)CCCCC1)c1ccc(Br)o1, the inhibition was inactive: -9.6%. With Cc1ccc(C(C)CCN(CCCl)CCCl)cc1 (centres undefined) the inhibition was inactive: -3.66%.
